One test concerns PBMC of DENV seropositive human donors. The format is cell-based. As to conditions: allele A*0201; ex vivo IFNγ ELISPOT, Sri Lankan donors.
Regarding `CSCC[C@H](NC(=O)[C@H](CCSC)NC(=O)[C@H](CC(C)C)NC(=O)[C@@H](N)CS)C(=O)N[C@@H](CCSC)C(=O)N[C@@H](CC(C)C)C(=O)N1CCC[C@H]1C(=O)N[C@@H](C)C(=O)N[C@H](C(=O)N[C@@H](CC(C)C)C(=O)O)[C@@H](C)O`, the “T cell response [SFC]” value amounted to 63 SFC.
As to `CSCC[C@H](NC(=O)[C@H](CC(C)C)NC(=O)[C@@H](N)CCC(=O)O)C(=O)N[C@@H](CCCNC(=N)N)C(=O)N[C@@H](CCCNC(=N)N)C(=O)NCC(=O)N[C@@H](CC(=O)O)C(=O)N[C@@H](CC(C)C)C(=O)N1CCC[C@H]1C(=O)N[C@H](C(=O)O)C(C)C`, the “T cell response [SFC]” value came out at 28 SFC.
Same read-out and setting: the same measure for `CC[C@H](C)[C@H](NC(=O)[C@H](CC(C)C)NC(=O)[C@H](CC(C)C)NC(=O)[C@@H](NC(=O)[C@H](CCSC)NC(=O)[C@H](CC(C)C)NC(=O)[C@@H](N)Cc1ccccc1)C(C)C)C(=O)N1CCC[C@H]1C(=O)N[C@@H](CCC(=O)O)C(=O)N1CCC[C@H]1C(=O)O`: 98 SFC.
On the same count and under the same terms, the same measure for `CC[C@H](C)[C@H](NC(=O)[C@H](C)NC(=O)[C@H](CC(C)C)NC(=O)[C@H](CS)NC(=O)[C@H](CC(C)C)NC(=O)[C@@H](NC(=O)CNC(=O)[C@H](CCSC)NC(=O)[C@@H](NC(=O)[C@@H](N)Cc1ccccc1)[C@@H](C)O)C(C)C)C(=O)O`: 33 SFC.
The same measure, in the same setting: with `CC[C@H](C)[C@H](N)C(=O)N[C@H](C(=O)N[C@@H](CC(C)C)C(=O)N[C@@H](CCC(=O)O)C(=O)N[C@@H](Cc1ccccc1)C(=O)N[C@@H](Cc1ccccc1)C(=O)N[C@@H](CC(C)C)C(=O)N[C@@H](CCSC)C(=O)N[C@H](C(=O)N[C@@H](CC(C)C)C(=O)O)C(C)C)[C@@H](C)CC` the figure was 152 SFC; with `CC[C@H](C)[C@H](N)C(=O)N[C@H](C(=O)N[C@@H](CC(C)C)C(=O)N[C@@H](CC(C)C)C(=O)N[C@@H](CS)C(=O)N[C@@H](CC(C)C)C(=O)N[C@H](C(=O)N1CCC[C@H]1C(=O)N[C@H](C(=O)N[C@H](C(=O)O)C(C)C)[C@@H](C)O)[C@@H](C)CC)[C@@H](C)O`, 43 SFC.
Take `CC[C@H](C)[C@H](NC(=O)[C@H](CC(C)C)NC(=O)[C@H](C)NC(=O)[C@H](CC(C)C)NC(=O)[C@H](CC(C)C)NC(=O)[C@H](CCSC)NC(=O)[C@@H](N)CC(C)C)C(=O)N[C@@H](C)C(=O)N[C@H](C(=O)N[C@@H](CC(C)C)C(=O)O)C(C)C`: the “T cell response [SFC]” value is recorded as 63 SFC.
As for `CSCC[C@H](NC(=O)[C@H](CCSC)NC(=O)[C@@H](N)CC(C)C)C(=O)N[C@@H](CCSC)C(=O)N[C@@H](CC(C)C)C(=O)N1CCC[C@H]1C(=O)N[C@@H](C)C(=O)N[C@H](C(=O)N[C@@H](CC(C)C)C(=O)O)[C@@H](C)O`, the “T cell response [SFC]” value was 78 SFC.
The same measure, in the same setting: with `CC[C@H](C)[C@H](NC(=O)[C@H](CC(C)C)NC(=O)[C@H](C)NC(=O)[C@H](CC(C)C)NC(=O)[C@H](CC(C)C)NC(=O)[C@@H](N)CCSC)C(=O)N[C@@H](C)C(=O)N[C@H](C(=O)N[C@@H](CC(C)C)C(=O)O)C(C)C` the figure was 85 SFC.
As for `CC[C@H](C)[C@H](NC(=O)[C@H](CC(C)C)NC(=O)[C@H](CC(C)C)NC(=O)[C@@H](N)CCSC)C(=O)N[C@@H](CC(C)C)C(=O)N[C@@H](CS)C(=O)N[C@H](C(=O)N[C@H](C(=O)N[C@@H](CCC(N)=O)C(=O)N[C@H](C(=O)O)C(C)C)[C@@H](C)O)C(C)C`, the “T cell response [SFC]” value was 103 SFC.
The same measure, in the same setting: with `CSCC[C@H](NC(=O)[C@H](CCSC)NC(=O)[C@@H](N)CCSC)C(=O)N[C@@H](CC(C)C)C(=O)N1CCC[C@H]1C(=O)N[C@@H](C)C(=O)N[C@H](C(=O)N[C@@H](CC(C)C)C(=O)N[C@@H](C)C(=O)O)[C@@H](C)O` the figure was 62 SFC; with `CC[C@H](C)[C@H](NC(=O)[C@@H](NC(=O)[C@@H](N)CO)[C@@H](C)CC)C(=O)N[C@@H](CC(C)C)C(=O)N[C@@H](CCC(=O)O)C(=O)N[C@@H](Cc1ccccc1)C(=O)N[C@@H](Cc1ccccc1)C(=O)N[C@@H](CC(C)C)C(=O)N[C@@H](CCSC)C(=O)N[C@H](C(=O)O)C(C)C`, 737 SFC; with `CSCC[C@H](NC(=O)[C@H](C)NC(=O)[C@H](CCSC)NC(=O)[C@H](CC(C)C)NC(=O)[C@@H](N)[C@@H](C)O)C(=O)N[C@@H](CC(=O)O)C(=O)N[C@@H](CC(C)C)C(=O)NCC(=O)N[C@@H](CCC(=O)O)C(=O)N[C@@H](CC(C)C)C(=O)O`, 67 SFC.
On the same count and under the same terms, with `CC(C)C[C@H](NC(=O)[C@H](CC(C)C)NC(=O)[C@@H](NC(=O)[C@H](C)NC(=O)[C@H](C)NC(=O)[C@@H](NC(=O)[C@H](CC(C)C)NC(=O)[C@@H](N)[C@@H](C)O)[C@@H](C)O)C(C)C)C(=O)N[C@@H](CC(C)C)C(=O)N[C@H](C(=O)O)C(C)C` the figure was 43 SFC.
As for `CC[C@H](C)[C@H](NC(=O)[C@H](C)NC(=O)[C@H](Cc1ccc(O)cc1)NC(=O)[C@H](Cc1c[nH]cn1)NC(=O)[C@@H](NC(=O)[C@@H](NC(=O)[C@H](CC(C)C)NC(=O)[C@H](CC(C)C)NC(=O)[C@H](CC(C)C)NC(=O)[C@@H](N)C(C)C)C(C)C)[C@@H](C)O)C(=O)O`, the “T cell response [SFC]” value is 260 SFC.

The same test, now with this note: allele A*0301; ex vivo IFNγ ELISPOT, Sri Lankan donors.
Regarding `CC[C@H](C)[C@H](NC(=O)[C@@H](NC(=O)[C@@H](N)CCCNC(=N)N)C(C)C)C(=O)N[C@@H](CC(=O)O)C(=O)N1CCC[C@H]1C(=O)N[C@@H](CCCNC(=N)N)C(=O)N[C@@H](CCCNC(=N)N)C(=O)N[C@@H](CS)C(=O)N[C@@H](CCSC)C(=O)N[C@@H](CCCCN)C(=O)O`, the “T cell response [SFC]” value is on record as 160 SFC.

Staying with this test, now noted: allele A*1101; ex vivo IFNγ ELISPOT, Sri Lankan donors.
In the case of `CC[C@H](C)[C@H](NC(=O)[C@H](CC(C)C)NC(=O)[C@H](Cc1ccccc1)NC(=O)[C@H](CC(C)C)NC(=O)[C@H](CCSC)NC(=O)[C@H](C)NC(=O)CN)C(=O)N[C@@H](CO)C(=O)NCC(=O)N[C@@H](CCCCN)C(=O)O`, the “T cell response [SFC]” value is reported as 212 SFC.
On the same count and under the same terms, with `CC[C@H](C)[C@H](NC(=O)[C@H](C)NC(=O)CNC(=O)[C@H](CO)NC(=O)[C@@H](N)CCCCN)C(=O)N[C@@H](CCCCN)C(=O)N[C@H](C(=O)N[C@@H](CC(C)C)C(=O)N[C@@H](CCCCN)C(=O)O)C(C)C` the figure was 823 SFC; with `CSCC[C@H](NC(=O)[C@@H](NC(=O)[C@H](Cc1ccc(O)cc1)NC(=O)[C@H](CO)NC(=O)[C@@H](N)CCSC)[C@@H](C)O)C(=O)N[C@@H](CS)C(=O)N[C@@H](CO)C(=O)NCC(=O)N[C@@H](CCCCN)C(=O)O`, 48 SFC; with `CC[C@H](C)[C@H](NC(=O)[C@@H](NC(=O)[C@@H](N)CCCNC(=N)N)C(C)C)C(=O)N[C@@H](CC(=O)O)C(=O)N1CCC[C@H]1C(=O)N[C@@H](CCCNC(=N)N)C(=O)N[C@@H](CCCNC(=N)N)C(=O)N[C@@H](CS)C(=O)N[C@@H](CC(C)C)C(=O)N[C@@H](CCCCN)C(=O)O`, 117 SFC.
Still for that read-out and setting: with `CC[C@H](C)[C@H](NC(=O)[C@@H](NC(=O)[C@@H](N)CCCNC(=N)N)C(C)C)C(=O)N[C@@H](CC(=O)O)C(=O)N1CCC[C@H]1C(=O)N[C@@H](CCCNC(=N)N)C(=O)N[C@@H](CCCNC(=N)N)C(=O)N[C@@H](CS)C(=O)N[C@@H](CCSC)C(=O)N[C@@H](CCCCN)C(=O)O` the figure was 93 SFC.
Regarding `CSCC[C@H](NC(=O)CNC(=O)[C@H](CC(C)C)NC(=O)[C@H](CC(=O)O)NC(=O)[C@H](CCCNC(=N)N)NC(=O)[C@H](CCCCN)NC(=O)[C@@H](NC(=O)[C@@H](N)[C@@H](C)O)[C@@H](C)O)C(=O)N[C@@H](CO)C(=O)N[C@@H](CCCCN)C(=O)O`, the “T cell response [SFC]” value turned out to be 75 SFC.

The same test, now with this note: allele A*2402; ex vivo IFNγ ELISPOT, Sri Lankan donors.
Regarding `CC[C@H](C)[C@H](N)C(=O)N[C@@H](CCC(N)=O)C(=O)N1CCC[C@H]1C(=O)N[C@@H](Cc1ccccc1)C(=O)N[C@@H](CC(C)C)C(=O)N[C@@H](C)C(=O)N[C@@H](CC(C)C)C(=O)NCC(=O)N[C@@H](Cc1ccccc1)C(=O)O`, the “T cell response [SFC]” value worked out at 27 SFC.
On the same count and under the same terms, with `CC[C@H](C)[C@H](N)C(=O)N[C@H](C(=O)N1CCC[C@H]1C(=O)N[C@@H](CCSC)C(=O)N[C@@H](CC(C)C)C(=O)N[C@@H](CCCNC(=N)N)C(=O)N[C@@H](Cc1c[nH]cn1)C(=O)N[C@H](C(=O)N[C@H](C(=O)O)[C@@H](C)CC)[C@@H](C)O)[C@@H](C)O` the figure was 193 SFC; with `CC(C)C[C@H](N)C(=O)N[C@@H](Cc1c[nH]c2ccccc12)C(=O)N[C@@H](CCC(=O)O)C(=O)NCC(=O)N[C@@H](CO)C(=O)N1CCC[C@H]1C(=O)NCC(=O)N[C@@H](CCCCN)C(=O)N[C@@H](Cc1ccccc1)C(=O)O`, 57 SFC.
The same measure, in the same setting: with `CC[C@H](C)[C@H](NC(=O)[C@H](Cc1ccc(O)cc1)NC(=O)[C@@H](N)CCC(N)=O)C(=O)N[C@@H](Cc1ccccc1)C(=O)N[C@H](C(=O)NCC(=O)N[C@@H](CCC(N)=O)C(=O)N1CCC[C@H]1C(=O)N[C@@H](CC(C)C)C(=O)O)[C@@H](C)O` the figure was 78 SFC.

Staying with this test, now noted: allele A*3101; ex vivo IFNγ ELISPOT, Sri Lankan donors.
Regarding `CC[C@H](C)[C@H](NC(=O)[C@@H](NC(=O)[C@@H](N)CCCNC(=N)N)C(C)C)C(=O)N[C@@H](CC(=O)O)C(=O)N1CCC[C@H]1C(=O)N[C@@H](CCCNC(=N)N)C(=O)N[C@@H](CCCNC(=N)N)C(=O)N[C@@H](CS)C(=O)N[C@@H](CCSC)C(=O)N[C@@H](CCCCN)C(=O)O`, the “T cell response [SFC]” value is given as 115 SFC.

Staying with this test, now noted: allele A*3301; ex vivo IFNγ ELISPOT, Sri Lankan donors.
Regarding `CC(C)C[C@H](NC(=O)[C@H](CCC(N)=O)NC(=O)[C@@H](NC(=O)[C@H](Cc1ccc(O)cc1)NC(=O)[C@@H](N)C(C)C)[C@@H](C)O)C(=O)N[C@@H](CS)C(=O)N[C@@H](CC(=O)O)C(=O)N[C@@H](Cc1c[nH]cn1)C(=O)N[C@@H](CCCNC(=N)N)C(=O)O`, the “T cell response [SFC]” value is reported as 28 SFC.

Still in this test, the particulars now being: allele B*0702; ex vivo IFNγ ELISPOT, Sri Lankan donors.
For the molecule `CC(C)C[C@H](NC(=O)[C@H](CS)NC(=O)[C@H](CCCNC(=N)N)NC(=O)[C@H](CCCNC(=N)N)NC(=O)[C@@H]1CCCN1C(=O)[C@@H](N)CC(=O)O)C(=O)N[C@@H](CCCCN)C(=O)N1CCC[C@H]1C(=O)N[C@H](C(=O)O)C(C)C`, the “T cell response [SFC]” value is on record as 115 SFC.
Take `CC(C)C[C@H](NC(=O)[C@H](CC(C)C)NC(=O)CNC(=O)CNC(=O)[C@H](C)NC(=O)[C@@H](NC(=O)[C@H](CC(C)C)NC(=O)[C@@H]1CCCN1C(=O)CN)C(C)C)C(=O)O`: the “T cell response [SFC]” value came out at 35 SFC.
In the case of `CC[C@H](C)[C@H](NC(=O)[C@@H](NC(=O)[C@@H]1CCCN1C(=O)[C@H](CO)NC(=O)CNC(=O)[C@H](CO)NC(=O)[C@@H](NC(=O)CNC(=O)[C@@H]1CCCN1C(=O)[C@@H](N)CCCCN)[C@@H](C)O)[C@@H](C)CC)C(=O)O`, the “T cell response [SFC]” value was found to be 365 SFC.
On the same count and under the same terms, with `CC[C@H](C)[C@H](NC(=O)[C@@H](NC(=O)[C@@H]1CCCN1C(=O)[C@@H](N)CO)[C@@H](C)CC)C(=O)N[C@@H](CC(N)=O)C(=O)N[C@@H](CCCNC(=N)N)C(=O)N[C@@H](CCC(=O)O)C(=O)NCC(=O)N[C@@H](CCCCN)C(=O)N[C@H](C(=O)O)C(C)C` the figure was 105 SFC.

The record behind these values is US20150150960A1, “PROTECTION AGAINST DENGUE VIRUS AND PREVENTION OF SEVERE DENGUE DISEASE” (priority 2010, published 2015).
